Antibody variant affinities, Ab-95 light chain, assay 2

The measurements come from Engelhart et al. 2022 (doi:10.1038/s41597-022-01779-4) through the FLAb antibody collection.

The target is the same throughout: PDVDLGDISGINAS, from the HR2 region of SARS-CoV-2 spike.

Parent scFv Ab-95: VH joined to VL by a (GGGGS)3 linker. Changes lie in the light chain CDRs alone.
VH: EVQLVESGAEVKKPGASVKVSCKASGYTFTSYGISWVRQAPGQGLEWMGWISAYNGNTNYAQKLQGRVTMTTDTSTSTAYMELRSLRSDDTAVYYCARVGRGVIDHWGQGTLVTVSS
VL: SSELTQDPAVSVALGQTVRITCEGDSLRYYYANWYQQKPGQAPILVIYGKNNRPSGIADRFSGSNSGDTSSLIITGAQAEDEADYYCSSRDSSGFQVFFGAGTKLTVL

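Variants in AAYL52 differ from the parent at up to three CDR positions; double and triple changes were sampled at random. The assay is AlphaSeq: two haploid yeast populations carry antibody and antigen on their surface. Pairs that bind mate more often; barcode pairs of the diploids are counted by sequencing. A regression on co-assayed BCL2-family reference pairs converts the normalised counts of each replicate to an apparent Kd. Mating was done three times.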

The parent's light chain CDRs are EGDSLRYYYAN, GKNNRPS, SSRDSSGFQVF; each variant's own CDRs replace them letter for letter. This list gathers variants with a substitution at N52 (VL, numbered from residue 1). Values are apparent Kd, the geometric mean of the replicates that gave a signal; lower means stronger binding. "no signal" means that the variant was in the library but no mating with the target was seen in any replicate; the authors take this as a sign of poor binding, and no number exists. In this assay the parent's reference entry averaged 200 nM; its copy inside this library read 180 nM. As a blank, each scFv also met three strains without target: over library AAYL52, 28% of these pairings were detected, typically at 8.2 µM and seldom below 800 nM. The control count says in how many pairings with the empty strains this scFv gave a signal.

CDR-L1,CDR-L2,CDR-L3,Kd (apparent),seen in,empty controls
EGYSLRYLYAN,GKNQRPS,SSRDSSGFQVF,58 nM,3/3,1/9
EGDSLRYFYAN,GTNQRPS,SSRDSSGFQVF,660 nM,3/3,0/9
EGDALRYYYAN,GKNDRPS,SSRDSSGFIVF,170 nM,3/3,2/9
EGDSLRYYYAN,FKNMRPS,SSRDSSGFQVF,no signal,0/3,2/9
EGDSLRYYYAN,IKNCRPS,SSRDDSGFQVF,16 µM,3/3,4/9
EGDSLRYYYAN,GSNARPS,SSRPSSGFQVF,14 µM,3/3,7/9
EGCSLRYYYAN,GKNMRPS,SSRDSSGFQVF,1.8 µM,2/3,2/9
QGDSLRVYYAN,GKNCRPS,SSRDSSGFQVF,24 µM,1/3,2/9
EGDSLRRYYAN,GKNERRS,SSRDSSGFQVF,370 nM,3/3,1/9
EGDSLRYYYAN,GYNGRPS,SSRDSSGWQVF,15 µM,3/3,5/9
EGDSLRYYYAN,GKNLRPQ,SSRDSSGFLVF,1.8 µM,3/3,3/9
EGDSLRYYYAN,GKNGRPS,SSRDSSGPQVF,no signal,0/3,5/9
EGDSLRQYYAN,GWNCRPS,SSRDSSGFQVF,2.7 µM,2/3,4/9
EGDSLRYYYAN,GKNGRPS,SSRDHSKFQVF,no signal,0/3,1/9
AGDSLRYYYYN,GKNYRPS,SSRDSSGFQVF,7.1 µM,3/3,3/9
EGDSLRYYYAN,GKNYRPS,SSRDSSGFQVF,170 nM,3/3,3/9
EGDSLRPYYAN,GKNARPS,SSRDSSGKQVF,1.9 µM,3/3,3/9
EGDSLREYYAN,GKNYRPS,SSRDSSWFQVF,680 nM,3/3,3/9
EGESLRYYYAN,GKNTRPS,SSRDSSGFRVF,420 nM,3/3,2/9
EGDSERYYYAN,GKNHRPS,SSRDSSGKQVF,2.7 µM,3/3,5/9
EGDSLRYYPAN,GKNGRPS,PSRDSSGFQVF,36 nM,3/3,2/9
EGDSLRYYYAN,GKNPRPS,SSRDYSGFQHF,190 µM,1/3,3/9
TGDSLRYYYAN,GKNQRPS,SSRRSSGFQVF,no signal,0/3,1/9
EGDHLRYYYAN,GKNDRPS,SSRDSSGFQVE,8.1 µM,1/3,1/9
EGDSLRYYYAN,GKNHRPS,SSRDGSGFQVF,4.3 µM,2/3,4/9
EGDSLQYYYAN,GKNPRPS,SSRDSSGFQGF,no signal,0/3,0/9
EGDSLRYYYAN,GKNTPPS,SSRDSSRFQVF,5.2 µM,3/3,3/9
MGDSLRYYYAN,GKNERPS,SSRDDSGFQVF,350 nM,3/3,4/9
WGDSLRYYYAN,GKNSMPS,SSRDSSGFQVF,13 µM,3/3,4/9
EHDSLRYYYAN,GKNERPS,SSRDMSGFQVF,330 nM,3/3,1/9
EGDSLRYYYAN,GKNIRPS,SSEMSSGFQVF,15 µM,2/3,4/9
EGDSLRYYYAD,GKNERPS,SSRDSSGFQVF,18 µM,3/3,1/9
EGDSLRYYYMN,GKNLRPS,SSRDSSGFLVF,79 µM,2/3,4/9
EGDSLRYYYPN,GKNDDPS,SSRDSSGFQVF,14 µM,3/3,0/9
EGDSLRYYYAN,GKNEEPS,SSRNSSGFQVF,21 µM,1/3,2/9
EGDSLRYYYAN,GKNWWPS,CSRDSSGFQVF,15 µM,2/3,3/9
EGDSLRYCYAN,GKNLRPS,SSRDSSGHQVF,280 nM,3/3,6/9
EGDSLRYYYAN,GKNRRPS,ASRDSDGFQVF,920 nM,2/3,2/9
EMDSLRYYYAN,AKNYRPS,SSRDSSGFQVF,18 µM,3/3,2/9
EGDSLRYTYAN,GKNLRPS,SSRDSSRFQVF,38 nM,3/3,6/9
EGDSLRYYYAN,GKNFRPS,SSRVSSGFQVA,840 nM,2/3,4/9
EGDSLRYYYAY,GKNGRPS,SSRDSSGFMVF,62 µM,2/3,6/9
EGDSLRYYYAN,GKNMRPS,HSRDSSGLQVF,4.4 µM,3/3,0/9
EGDSLRWYYAN,GKNRRPS,CSRDSSGFQVF,47 µM,2/3,4/9
EGDSLRYYYAN,GKNSRPS,SSRDSSNFQVF,no signal,0/3,4/9
PGDSLRYYYAN,GKNCRPS,TSRDSSGFQVF,160 µM,1/3,0/9
WGDWLRYYYAN,GKNTRPS,SSRDSSGFQVF,2.8 µM,3/3,5/9
EGDSNRYPYAN,GKNIRPS,SSRDSSGFQVF,37 nM,3/3,0/9
EGDSLRYYGAN,GKNKRPS,SSRDSSGYQVF,490 nM,3/3,0/9
EGDSLRYYYAN,GKNLRLS,SSFDSSGFQVF,25 µM,1/3,3/9
EGDSLRNYYAN,GKNVRPS,SGRDSSGFQVF,320 nM,3/3,0/9
EGDSLRYYYYN,GKNTRPS,SSLDSSGFQVF,860 nM,1/3,2/9
EGDSLAYYYAN,GKNKRPS,SSLDSSGFQVF,2.9 µM,3/3,3/9
EHDSLRYYYAN,GKNGRPS,SSMDSSGFQVF,71 µM,1/3,3/9

A selection of 4 entries from above:

CDR-L1,CDR-L2,CDR-L3,Kd (apparent),seen in,empty controls
EGDSLRYYYAN,GKNIRPS,SSEMSSGFQVF,15 µM,2/3,4/9
EGDSLQYYYAN,GKNPRPS,SSRDSSGFQGF,no signal,0/3,0/9
MGDSLRYYYAN,GKNERPS,SSRDDSGFQVF,350 nM,3/3,4/9
PGDSLRYYYAN,GKNCRPS,TSRDSSGFQVF,160 µM,1/3,0/9